Assay results as given in patent publication US6475746B1, “Method of obtaining a composition comprising a 5-HT1D selective compound” (Synaptic Pharmaceutical Corporation, priority 1990, dated 2002).

The chains behind the UniProt entries cited, without tags or fusion partners.
UniProt P11614, whole entry: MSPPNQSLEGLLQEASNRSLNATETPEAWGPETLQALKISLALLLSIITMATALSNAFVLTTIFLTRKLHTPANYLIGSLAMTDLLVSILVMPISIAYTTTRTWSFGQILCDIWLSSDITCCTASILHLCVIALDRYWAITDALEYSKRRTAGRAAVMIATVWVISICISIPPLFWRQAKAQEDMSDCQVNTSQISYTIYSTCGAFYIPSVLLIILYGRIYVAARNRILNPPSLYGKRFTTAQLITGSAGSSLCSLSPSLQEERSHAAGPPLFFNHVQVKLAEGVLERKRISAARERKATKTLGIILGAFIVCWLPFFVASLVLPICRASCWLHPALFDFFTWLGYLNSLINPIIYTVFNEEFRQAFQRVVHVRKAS
UniProt P28222, whole entry: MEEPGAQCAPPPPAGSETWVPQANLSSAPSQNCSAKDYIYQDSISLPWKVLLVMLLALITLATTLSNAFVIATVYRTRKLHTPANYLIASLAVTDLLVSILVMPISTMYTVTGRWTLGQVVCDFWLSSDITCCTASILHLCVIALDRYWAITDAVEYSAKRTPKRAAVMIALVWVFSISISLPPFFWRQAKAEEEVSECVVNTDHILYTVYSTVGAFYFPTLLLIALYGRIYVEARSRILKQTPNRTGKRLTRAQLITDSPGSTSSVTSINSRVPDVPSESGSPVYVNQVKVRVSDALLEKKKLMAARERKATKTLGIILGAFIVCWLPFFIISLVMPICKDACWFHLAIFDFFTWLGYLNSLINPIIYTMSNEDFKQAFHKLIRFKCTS

Tests used:
[1] = target: Cloned Canine 5-HT1D-1 (RDC4) (Canis lupus familiaris, UniProt P11614); assay: [3H]5-HT binding to cloned canine 5-HT1D-1 (RDC4) in transfected cell membranes
[2] = target: Cloned Human 5-HT1D-2 (Homo sapiens, UniProt P28222); assay: [3H]5-HT binding to cloned human 5-HT1D-2 (gene 11) in transfected cell membranes; conditions: read-out: Estimated equilibrium dissociation constants (Ki values); [3H]5-HT displacement; membranes of LM (tk−) cells stably transfected; Cheng-Prusoff

| Ki [1] | SMILES | Ki [2] |
| --- | --- | --- |
| 0.0016 ± 0.0002 µM | CNS(=O)(=O)Cc1ccc2[nH]cc(CCN(C)C)c2c1 [Sumatriptan] | – |
| – | COC(=O)[C@@H]1[C@H]2C[C@H]3c4[nH]c5ccccc5c4CCN3C[C@@H]2CC[C@@H]1O [Yohimbine] | 0.027 ± 0.003 µM |
